Target: hDAT (Homo sapiens, UniProt Q01959)
Assay: Photoaffinity labeling of DAT with
Format: binding
Conditions: 10 μM blocker, 10 nM (±)-[125I]-6

Sequences of proteins named here, by UniProt entry; tags and fusion partners are left off.
UniProt Q01959, whole entry: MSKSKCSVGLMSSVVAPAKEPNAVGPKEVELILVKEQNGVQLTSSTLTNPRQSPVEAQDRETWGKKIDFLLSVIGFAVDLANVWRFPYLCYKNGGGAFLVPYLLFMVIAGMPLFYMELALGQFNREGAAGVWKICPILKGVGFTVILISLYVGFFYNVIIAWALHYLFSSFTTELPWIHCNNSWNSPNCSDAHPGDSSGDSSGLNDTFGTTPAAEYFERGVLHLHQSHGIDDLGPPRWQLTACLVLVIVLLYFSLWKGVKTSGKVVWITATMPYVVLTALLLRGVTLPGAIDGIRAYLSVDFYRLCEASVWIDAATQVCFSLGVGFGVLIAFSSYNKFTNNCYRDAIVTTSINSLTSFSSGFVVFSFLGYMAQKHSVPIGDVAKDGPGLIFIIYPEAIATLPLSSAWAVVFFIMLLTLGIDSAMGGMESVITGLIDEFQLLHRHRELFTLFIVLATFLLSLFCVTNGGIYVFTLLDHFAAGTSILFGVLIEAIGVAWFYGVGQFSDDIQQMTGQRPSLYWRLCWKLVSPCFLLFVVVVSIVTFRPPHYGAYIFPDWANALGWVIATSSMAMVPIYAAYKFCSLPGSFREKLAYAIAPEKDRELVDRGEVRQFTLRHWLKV

(−)-cocaine
block of incorporation of photoprobe (±)-[125I]-6 into DAT: > 90%

— article PMC3469269 (ACS medicinal chemistry letters, 2012)
